Assay results reported in article PMC5518866 (British Journal of Cancer, 2017).
Like-named read-outs stand apart in the source and are kept apart here.

Assays:
[1] = test system: patients with advanced malignancies; assay: Phase I, 3 days on/4 days off schedule: safety; assay type: in vivo, human
[2] = ref Siemeister et al, 2012, cited from earlier work
[3] = Plasma pharmacokinetics, 4 weeks on/2 weeks off schedule; set-up: species or system human; settings: in vivo
[4] = Plasma pharmacokinetics, 3 days on/4 days off schedule; assay type: in vivo, human
[5] = test system: patients with advanced malignancies; assay: Phase I, 4 weeks on/2 weeks off schedule: safety; set-up: species or system human; settings: in vivo
[6] = ref Siemeister et al, 2012; cited from earlier work
[7] = Formulation bridging and food-effect pharmacokinetics; assay type: in vivo, human; settings: for AUC(0–24), geometric mean: seven patients
[8] = Cohort 6 9.6 mg BID bridging (n=6)
[9] = SCLC food-effect cohort 5 mg BID (n=8)
[10] = Tumour mutation cohort 5 mg BID (n=6)
[11] = RP2D 5 mg BID, cycle 1, day 10, expansion cohorts

roniciclib
Dose-limiting toxicities (DLTs) ([1]; 5 mg BID, tablet formulation): no DLTs were reported
Maximum tolerated dose (MTD), initial determination ([1]; BID (5 mg in the morning, 10 mg in the evening), solid tumours): 5/10
MTD, reassessed after thromboembolic events in 5/10 mg expansion phase ([1]; BID, solid tumours): 5 mg
Anorexia, treatment-related AE grade 3 ([1]; Cohort 4 2.4 mg BID (n=3)): 1 (33.3) n (%)
Fatigue, treatment-related AE grade 3 [1, 8]: 1 (16.7) n (%)
Hyponatraemia, treatment-related AE grade 3 [1, 8]: 1 (16.7) n (%)
Nausea, treatment-related AE grade 3 [1, 8]: 1 (16.7) n (%)
Fatigue, treatment-related AE grade 3 ([1]; Cohort 7 5 mg BID (n=4)): 1 (25.0) n (%)
Peripheral ischaemia, treatment-related AE grade 4 ([1]; Cohort 8 5/10 mg BID (n=7)): 1 (14.3) n (%)
Anorexia, treatment-related AE grade 3 ([1]; Cohort 9 10 mg BID (n=7)): 1 (14.3) n (%)
Hypotension, treatment-related AE grade 3 ([1]; Cohort 9 10 mg BID (n=7)): 1 (14.3) n (%)
Hypophosphatemia, treatment-related AE grade 3 ([1]; Cohort L2 5 mg BID (n=4)): 1 (25.0) n (%)
Fatigue, treatment-related AE grade 3 ([1]; Ovarian cohort 5 mg BID (n=22)): 3 (13.6) n (%)
Hypophosphatemia, treatment-related AE grade 3 ([1]; Ovarian cohort 5 mg BID (n=22)): 1 (4.5) n (%)
Hypotension, treatment-related AE grade 3 ([1]; Ovarian cohort 5 mg BID (n=22)): 1 (4.5) n (%)
Nausea, treatment-related AE grade 3 ([1]; Ovarian cohort 5 mg BID (n=22)): 1 (4.5) n (%)
Vomiting, treatment-related AE grade 3 ([1]; Ovarian cohort 5 mg BID (n=22)): 2 (9.1) n (%)
Thromboembolic event, treatment-related AE grade 3 ([1]; Ovarian cohort 5/10 mg BID (n=3)): 2 (66.7) n (%)
Fatigue, treatment-related AE grade 3 ([1]; SCLC cohort 5 mg BID (n=23)): 1 (4.3) n (%)
Hyponatraemia, treatment-related AE grade 3 ([1]; SCLC cohort 5 mg BID (n=23)): 1 (4.3) n (%)
Hypophosphatemia, treatment-related AE grade 3 ([1]; SCLC cohort 5 mg BID (n=23)): 1 (4.3) n (%)
Hypotension, treatment-related AE grade 3 ([1]; SCLC cohort 5 mg BID (n=23)): 2 (8.7) n (%)
Nausea, treatment-related AE grade 3 ([1]; SCLC cohort 5 mg BID (n=23)): 2 (8.7) n (%)
Thromboembolic event, treatment-related AE grade 3 ([1]; SCLC cohort 5 mg BID (n=23)): 1 (4.3) n (%)
Thromboembolic event, treatment-related AE grade 4 ([1]; SCLC cohort 5/10 mg BID (n=2)): 1 (50.0) n (%)
Anorexia, treatment-related AE grade 3 [1, 9]: 1 (12.5) n (%)
Hyponatraemia, treatment-related AE grade 3 [1, 9]: 1 (12.5) n (%)
Nausea, treatment-related AE grade 3 [1, 9]: 1 (12.5) n (%)
Vomiting, treatment-related AE grade 3 [1, 9]: 1 (12.5) n (%)
Anorexia, treatment-related AE grade 3 ([1]; Total (N=111)): 4 (3.6) n (%)
Fatigue, treatment-related AE grade 3 ([1]; Total (N=111)): 8 (7.2) n (%)
Hyponatraemia, treatment-related AE grade 3 ([1]; Total (N=111)): 3 (2.7) n (%)
Hypophosphatemia, treatment-related AE grade 3 ([1]; Total (N=111)): 3 (2.7) n (%)
Hypotension, treatment-related AE grade 3 ([1]; Total (N=111)): 4 (3.6) n (%)
Nausea, treatment-related AE grade 3 ([1]; Total (N=111)): 6 (5.4) n (%)
Peripheral ischaemia, treatment-related AE grade 4 ([1]; Total (N=111)): 1 (0.9) n (%)
Thromboembolic event, treatment-related AE grade 3 ([1]; Total (N=111)): 3 (2.7) n (%)
Thromboembolic event, treatment-related AE grade 4 ([1]; Total (N=111)): 1 (0.9) n (%)
Vomiting, treatment-related AE grade 3 ([1]; Total (N=111)): 3 (2.7) n (%)
Anorexia, treatment-related AE grade 3 [1, 10]: 1 (16.7) n (%)
Fatigue, treatment-related AE grade 3 [1, 10]: 2 (33.3) n (%)
Nausea, treatment-related AE grade 3 [1, 10]: 1 (16.7) n (%)
Abnormal electrocardiogram patterns ([1]; across both studies): uncommon
Anorexia, roniciclib-related TEAE grade 3 ([1]; all cohorts): 3.6%
Diarrhoea, roniciclib-related TEAE any grade ([1]; all cohorts): 63.1%
Fatigue, roniciclib-related TEAE any grade ([1]; all cohorts): 65.8%
Fatigue, roniciclib-related TEAE grade 3 ([1]; all cohorts): 7.2%
Hypotension, roniciclib-related TEAE grade 3 ([1]; all cohorts): 3.6%
Nausea, roniciclib-related TEAE any grade ([1]; all cohorts): 76.6%
Nausea, roniciclib-related TEAE grade 3 ([1]; all cohorts): 5.4%
Patients with an AE of grade 3 ([1]; all cohorts): 42.3%
Patients with an AE of grade 3, 4 or 5 ([1]; all cohorts): 59.5%
Patients with an AE of grade 4 ([1]; all cohorts): 5.4%
Patients with an AE of grade 5 ([1]; all cohorts): 11.7%
Patients with at least one dose modification (reduction or interruption) ([1]; all cohorts): 63.1%
Patients with dose interruptions or delays ([1]; all cohorts): 59.5%
Patients with dose reductions ([1]; all cohorts): 20.7%
Roniciclib-related TEAEs of any grade, patients ([1]; all cohorts): 95.5%
Vomiting, roniciclib-related TEAE any grade ([1]; all cohorts): 57.7%
Deaths attributed to the study drug ([1]; in vivo): None of these deaths was attributed to the study drug
Effect on neutrophils ([1]; in vivo): no marked effect on neutrophils was observed
Grade 5 event: death not specified ([1]; in vivo): 2.7%
Patients who died between first day of treatment and 30 days post treatment ([1]; in vivo): Eleven
Patients with roniciclib-related serious AEs ([1]; in vivo): Eleven
Relevant treatment-emergent changes in coagulation parameters (factor VIII, D-dimers, von Willebrand factor antigen) ([1]; in vivo): not observed
Roniciclib-related serious AEs: thromboembolic events and peripheral ischaemia ([1]; in vivo): 4.5%
Serious TEAE: other general disorders ([1]; in vivo): 4.5%
Serious TEAE: venous and arterial thromboembolic events ([1]; including a case of peripheral ischaemia): 7.2%
Dose-limiting toxicities (DLTs) ([1]; lymphoid malignancy dose-escalation cohorts, doses up to 5 mg BID): No DLTs were reported
Dose-limiting toxicities (DLTs), patients ([1]; solid-tumour dose-escalation cohorts): five
Number of roniciclib-related grade 4 TEAEs ([1]; thromboembolic event and peripheral ischaemia): two
Recommended phase II dose (RP2D) ([1]; twice daily (BID), solid tumours): 5 mg
Bioavailability ([2]; mice): good bioavailability
Bioavailability ([2]; preclinical, after oral application): ~50%
Volume of distribution ([2]; preclinical): high volume of distribution
PK parameters in 4 weeks on/2 weeks off vs 3 days on/4 days off schedule [3]: generally comparable
AUC(0–12), geometric mean, multiple-dose [4, 11]: 662 µg·h/L
Cmax, geometric mean, multiple-dose [4, 11]: 98.6 ng/mL
Dose proportionality of exposure ([4]; dose range 0.3–10 mg, single-dose and multiple-dose): generally dose-proportional increase in exposure
Accumulation after BID dosing ([4]; expansion cohorts): approximately two-fold
Half-life ([4]; expansion cohorts, on average): 8.5 h
Median tmax ([4]; oral, solution and tablet formulations): ~1 h
Exposure with monotherapy in patients below simulated efficacious exposure in mice ([4]; unpublished data): ~50%
Grade 4 or 5 TEAEs [5]: No grade 4 or 5 TEAEs were reported
Solubility [6]: high solubility
AUC(0–24), geometric mean ([7]; 5 mg tablets following a high-fat, high-calorie meal): 318 ng·h/mL
AUC(0–24), geometric mean ([7]; 5 mg tablets under fasting conditions): 511 ng·h/mL
Decrease in exposure with food ([7]; 5 mg tablets, AUC(0–24) fed vs fasting): 38%
Cmax, geometric mean ([7]; 5 mg tablets, fasting): 71.5 ng/mL
Cmax, geometric mean ([7]; 5 mg tablets, fed): 29.7 ng/mL
AUC (from time 0 to the last data point), geometric mean ([7]; 9.6 mg as solution formulation): 575 ng·h/mL
AUC (from time 0 to the last data point), geometric mean ([7]; 10 mg as tablets): 815 ng·h/mL
